Measured values reported in US7998736B2, “Adoptive immunotherapy with enhanced T lymphocyte survival” (The United States of America as represented by the …, priority 2004, dated 2011).

System: CTLL-2 cells
Assay: CTLL-2 proliferation assay (3H-thymidine)
Format: cell-based, mouse
Settings: Sup-T1 supernatants or control cytokine, 24 h
Protocol: CTLL-2 is a C57BL/6 mouse cytotoxic T lymphocyte clone used to assay for “T lymphocyte growth factor.” The cells can be stimulated to proliferate by IL-2 or IL-15. The CTLL-2 assay was used to determine whether IL-15 produced by transduced Sup-T1 cells was biologically active.
CTLL-2 cells were grown in culture for 4 days and then harvested and washed twice in PBS and then plated into a 96-well plate, 5×10^3 cells/well. The CTLL-2 cells were incubated in the absence of cytokines for 4 hours. Supernatants from the transduced Sup-T1 cells were then added to the culture in serial dilutions. Positive controls (IL-2 and IL-15) were also added to other wells. The CTLL-2 cells were cultured for a total of 24 hours; during the final six hours ^3H-Thymidine was added to each well. The CTLL-2 cells were harvested to a filter and read on a β-counter.

Q: How did the “proliferation of CTLL-2” value turn out when “IL-2: exogenous IL-2 cytokine added to culture media” was run?
A: did proliferate
